{
  "sequences": {"note": "Protein sequences, listed by entry. Tags and fused reporters are not part of them. Residues count along the entry.", "UniProt P45983, whole entry": "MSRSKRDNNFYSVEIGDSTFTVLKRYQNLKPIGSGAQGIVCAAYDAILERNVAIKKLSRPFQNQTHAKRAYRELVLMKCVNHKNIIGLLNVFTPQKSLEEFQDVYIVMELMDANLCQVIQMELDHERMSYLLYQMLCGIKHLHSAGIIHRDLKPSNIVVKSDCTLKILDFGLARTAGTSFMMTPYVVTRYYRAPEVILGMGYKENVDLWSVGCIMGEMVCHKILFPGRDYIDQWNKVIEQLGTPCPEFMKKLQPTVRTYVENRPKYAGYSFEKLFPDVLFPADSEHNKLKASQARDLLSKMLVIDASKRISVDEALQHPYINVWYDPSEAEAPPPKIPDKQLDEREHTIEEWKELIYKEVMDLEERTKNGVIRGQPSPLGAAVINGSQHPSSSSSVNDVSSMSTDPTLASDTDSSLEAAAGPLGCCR", "UniProt P23443, whole entry": "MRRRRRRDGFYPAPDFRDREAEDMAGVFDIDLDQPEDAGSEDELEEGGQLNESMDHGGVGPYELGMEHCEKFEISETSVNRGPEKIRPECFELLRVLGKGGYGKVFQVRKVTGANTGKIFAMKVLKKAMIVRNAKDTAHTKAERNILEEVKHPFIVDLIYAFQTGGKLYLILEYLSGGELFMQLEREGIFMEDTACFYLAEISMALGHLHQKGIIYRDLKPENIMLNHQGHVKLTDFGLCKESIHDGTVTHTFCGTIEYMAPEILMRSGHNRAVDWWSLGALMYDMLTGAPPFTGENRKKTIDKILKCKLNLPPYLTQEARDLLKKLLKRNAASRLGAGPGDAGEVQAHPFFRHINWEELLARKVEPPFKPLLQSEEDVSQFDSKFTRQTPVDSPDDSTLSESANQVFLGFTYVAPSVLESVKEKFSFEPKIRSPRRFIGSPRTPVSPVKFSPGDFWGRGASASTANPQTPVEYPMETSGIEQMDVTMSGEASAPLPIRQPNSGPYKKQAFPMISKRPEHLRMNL", "UniProt Q8NG66, whole entry": "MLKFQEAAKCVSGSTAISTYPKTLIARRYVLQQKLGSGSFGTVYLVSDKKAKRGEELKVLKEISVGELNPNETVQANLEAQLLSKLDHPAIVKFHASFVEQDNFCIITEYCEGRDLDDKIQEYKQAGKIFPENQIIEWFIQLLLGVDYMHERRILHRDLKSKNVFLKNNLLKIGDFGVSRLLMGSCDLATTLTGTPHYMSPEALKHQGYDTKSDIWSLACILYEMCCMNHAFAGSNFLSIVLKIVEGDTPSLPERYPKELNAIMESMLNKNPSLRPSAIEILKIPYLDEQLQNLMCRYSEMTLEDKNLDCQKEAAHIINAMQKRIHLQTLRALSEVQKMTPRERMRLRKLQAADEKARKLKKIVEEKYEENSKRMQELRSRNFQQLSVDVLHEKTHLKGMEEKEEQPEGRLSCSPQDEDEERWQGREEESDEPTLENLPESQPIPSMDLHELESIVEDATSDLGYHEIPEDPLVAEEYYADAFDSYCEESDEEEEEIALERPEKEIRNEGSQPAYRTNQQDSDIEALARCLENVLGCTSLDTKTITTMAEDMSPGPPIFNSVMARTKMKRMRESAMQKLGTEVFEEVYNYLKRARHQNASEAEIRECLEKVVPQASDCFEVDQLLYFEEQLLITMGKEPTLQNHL", "UniProt P29376, 17-864 limits assumed": "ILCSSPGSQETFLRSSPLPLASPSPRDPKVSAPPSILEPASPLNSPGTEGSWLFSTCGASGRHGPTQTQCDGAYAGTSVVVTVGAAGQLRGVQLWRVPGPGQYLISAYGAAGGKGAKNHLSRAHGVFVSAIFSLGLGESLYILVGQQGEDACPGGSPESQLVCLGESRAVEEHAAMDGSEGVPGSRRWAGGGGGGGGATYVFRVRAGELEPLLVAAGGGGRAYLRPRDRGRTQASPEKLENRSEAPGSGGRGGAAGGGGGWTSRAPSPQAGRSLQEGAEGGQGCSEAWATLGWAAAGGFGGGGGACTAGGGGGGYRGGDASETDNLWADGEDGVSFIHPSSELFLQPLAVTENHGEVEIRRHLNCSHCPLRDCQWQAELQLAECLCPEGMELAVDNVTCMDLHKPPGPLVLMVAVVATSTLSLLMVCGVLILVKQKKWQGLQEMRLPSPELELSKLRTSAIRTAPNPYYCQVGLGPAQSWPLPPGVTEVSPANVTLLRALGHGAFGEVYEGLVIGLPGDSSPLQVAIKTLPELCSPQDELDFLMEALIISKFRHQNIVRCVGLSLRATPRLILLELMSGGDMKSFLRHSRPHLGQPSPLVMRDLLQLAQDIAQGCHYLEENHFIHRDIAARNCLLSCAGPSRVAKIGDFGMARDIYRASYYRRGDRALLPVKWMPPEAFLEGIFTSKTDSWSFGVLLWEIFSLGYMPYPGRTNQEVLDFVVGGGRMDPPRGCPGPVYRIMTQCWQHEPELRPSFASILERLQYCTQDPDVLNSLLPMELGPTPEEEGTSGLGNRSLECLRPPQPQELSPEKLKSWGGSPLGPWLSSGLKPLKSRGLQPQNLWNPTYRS"},
  "source": "patent US20260382623A1",
  "about": "“NOVEL COMPOUND FOR INHIBITING PROTEIN KINASES AND PHARMACEUTICAL COMPOSITION COMPRISING SAME” (published 2026)",
  "key": {"full kinase panel [1]": {"target": "full kinase panel (Homo sapiens, UniProt P45983)", "assay": "Full kinase panel inhibition by Example compounds 8 and 51 at 1 μM (Tables 11 to 14; kinase named in each table line)", "details": "JNK1"}, "full kinase panel [2]": {"target": "full kinase panel (Homo sapiens, UniProt P23443)", "assay": "Full kinase panel inhibition by Example compounds 8 and 51 at 1 μM (Tables 11 to 14; kinase named in each table line)", "details": "P70S6K/RPS6KB1"}, "full kinase panel [3]": {"target": "full kinase panel (Homo sapiens, UniProt Q8NG66)", "assay": "Full kinase panel inhibition by Example compounds 8 and 51 at 1 μM (Tables 11 to 14; kinase named in each table line)", "details": "NEK11"}, "SW480": {"tested_on": "SW480", "assay": "Cell growth inhibition, SW480 (CCK-8)", "details": "read-out: Cell growth inhibition GI50, SW480, 72 hours"}, "full kinase panel [4]": {"target": "full kinase panel (Homo sapiens, UniProt P29376)", "assay": "Full kinase panel inhibition by Example compounds 8 and 51 at 1 μM (Tables 11 to 14; kinase named in each table line)", "details": "TYK1/LTK"}, "SKOV3": {"tested_on": "SKOV3", "assay": "Cell growth inhibition, SKOV3 (CCK-8)", "details": "read-out: Cell growth inhibition GI50, SKOV3, 72 hours"}},
  "data": [
    {"smiles": "Cc1ccc(Nc2ncc3c(n2)C2(CC2)C(=O)N(c2cc(NC(=O)c4cccc(C(F)(F)F)c4)ccc2C)C3)cn1", "values": [
      {"measurement": "kinase inhibition (residual enzyme activity)", "setting": "full kinase panel [1]", "value": "◯ (residual enzyme activity values were 40% or less, i.e., inhibited by 60% or more)"},
      {"measurement": "kinase inhibition (residual enzyme activity)", "setting": "full kinase panel [2]", "value": "◯ (residual enzyme activity values were 40% or less, i.e., inhibited by 60% or more)"},
      {"measurement": "kinase inhibition (residual enzyme activity)", "setting": "full kinase panel [3]", "value": "◯ (residual enzyme activity values were 40% or less, i.e., inhibited by 60% or more)"}
    ]},
    {"smiles": "Cc1cn(-c2cc(C(=O)Nc3ccc(C)c(N4Cc5cnc(NC6CC6)nc5C5(CC5)C4=O)c3)cc(C(F)(F)F)c2)cn1", "values": [
      {"measurement": "GI50", "setting": "SW480", "value": "< 5", "unit": "µM"},
      {"measurement": "kinase inhibition (residual enzyme activity)", "setting": "full kinase panel [4]", "value": "◯ (residual enzyme activity values were 40% or less, i.e., inhibited by 60% or more)"},
      {"measurement": "GI50", "setting": "SKOV3", "value": "< 5", "unit": "µM"}
    ]}
  ]
}
